# Several values for one entry are separate records, joined by “and”; a condition that tells them apart may be missing. Equal entries are not always repeated.
# The chains behind the UniProt entries cited, without tags or fusion partners. Where a name states a change or a piece, a line headed by the entry shows the natural chain unless it says otherwise. Residues count along the entry.
# UniProt P79208, 17-603 limits assumed: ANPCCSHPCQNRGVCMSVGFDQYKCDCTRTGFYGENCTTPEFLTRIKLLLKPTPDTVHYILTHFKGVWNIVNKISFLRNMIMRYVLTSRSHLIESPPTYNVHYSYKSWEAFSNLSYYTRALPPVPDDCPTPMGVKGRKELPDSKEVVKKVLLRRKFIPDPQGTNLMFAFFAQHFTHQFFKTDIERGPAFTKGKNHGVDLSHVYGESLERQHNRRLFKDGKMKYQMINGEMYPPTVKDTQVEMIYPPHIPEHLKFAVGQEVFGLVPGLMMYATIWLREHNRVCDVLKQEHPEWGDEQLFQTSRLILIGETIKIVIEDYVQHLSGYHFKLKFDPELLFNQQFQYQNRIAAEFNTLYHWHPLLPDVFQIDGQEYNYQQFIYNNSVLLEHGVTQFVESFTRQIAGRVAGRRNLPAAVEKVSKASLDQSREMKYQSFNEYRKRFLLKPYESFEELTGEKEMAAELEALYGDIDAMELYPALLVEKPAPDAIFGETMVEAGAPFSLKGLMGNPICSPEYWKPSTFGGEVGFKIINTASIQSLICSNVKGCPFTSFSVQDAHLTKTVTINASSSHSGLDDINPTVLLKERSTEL
# UniProt O62664, 25-600 limits assumed: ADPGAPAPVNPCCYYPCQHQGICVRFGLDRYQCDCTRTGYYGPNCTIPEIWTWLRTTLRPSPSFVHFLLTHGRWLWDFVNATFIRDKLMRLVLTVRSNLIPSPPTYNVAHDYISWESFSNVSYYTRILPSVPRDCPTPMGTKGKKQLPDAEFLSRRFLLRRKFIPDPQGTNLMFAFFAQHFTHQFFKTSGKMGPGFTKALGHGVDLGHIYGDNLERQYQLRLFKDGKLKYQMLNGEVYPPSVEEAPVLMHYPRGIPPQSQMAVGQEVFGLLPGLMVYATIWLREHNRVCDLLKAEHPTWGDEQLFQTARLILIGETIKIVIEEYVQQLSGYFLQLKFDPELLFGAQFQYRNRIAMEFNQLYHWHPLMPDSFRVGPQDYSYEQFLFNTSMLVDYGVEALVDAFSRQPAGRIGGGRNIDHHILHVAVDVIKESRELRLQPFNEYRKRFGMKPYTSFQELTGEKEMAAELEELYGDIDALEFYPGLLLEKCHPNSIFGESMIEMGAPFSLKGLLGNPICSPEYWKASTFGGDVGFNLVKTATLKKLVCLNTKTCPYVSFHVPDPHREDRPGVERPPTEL
# UniProt P23795: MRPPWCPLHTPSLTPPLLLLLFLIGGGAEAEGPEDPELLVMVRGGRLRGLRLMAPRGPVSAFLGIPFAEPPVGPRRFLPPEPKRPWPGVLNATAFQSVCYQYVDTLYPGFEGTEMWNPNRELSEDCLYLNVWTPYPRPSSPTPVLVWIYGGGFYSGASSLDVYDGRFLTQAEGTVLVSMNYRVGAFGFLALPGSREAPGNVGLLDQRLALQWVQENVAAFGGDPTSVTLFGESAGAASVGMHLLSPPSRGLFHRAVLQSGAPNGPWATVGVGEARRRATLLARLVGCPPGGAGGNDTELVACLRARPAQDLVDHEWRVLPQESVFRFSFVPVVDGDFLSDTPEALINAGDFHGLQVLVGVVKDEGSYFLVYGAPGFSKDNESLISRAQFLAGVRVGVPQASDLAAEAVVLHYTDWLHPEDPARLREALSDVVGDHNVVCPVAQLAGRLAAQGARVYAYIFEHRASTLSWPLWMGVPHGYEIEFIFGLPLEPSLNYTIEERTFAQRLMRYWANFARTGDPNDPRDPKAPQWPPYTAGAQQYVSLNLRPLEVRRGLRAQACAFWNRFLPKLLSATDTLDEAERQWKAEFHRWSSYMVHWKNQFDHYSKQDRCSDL
# UniProt P22303: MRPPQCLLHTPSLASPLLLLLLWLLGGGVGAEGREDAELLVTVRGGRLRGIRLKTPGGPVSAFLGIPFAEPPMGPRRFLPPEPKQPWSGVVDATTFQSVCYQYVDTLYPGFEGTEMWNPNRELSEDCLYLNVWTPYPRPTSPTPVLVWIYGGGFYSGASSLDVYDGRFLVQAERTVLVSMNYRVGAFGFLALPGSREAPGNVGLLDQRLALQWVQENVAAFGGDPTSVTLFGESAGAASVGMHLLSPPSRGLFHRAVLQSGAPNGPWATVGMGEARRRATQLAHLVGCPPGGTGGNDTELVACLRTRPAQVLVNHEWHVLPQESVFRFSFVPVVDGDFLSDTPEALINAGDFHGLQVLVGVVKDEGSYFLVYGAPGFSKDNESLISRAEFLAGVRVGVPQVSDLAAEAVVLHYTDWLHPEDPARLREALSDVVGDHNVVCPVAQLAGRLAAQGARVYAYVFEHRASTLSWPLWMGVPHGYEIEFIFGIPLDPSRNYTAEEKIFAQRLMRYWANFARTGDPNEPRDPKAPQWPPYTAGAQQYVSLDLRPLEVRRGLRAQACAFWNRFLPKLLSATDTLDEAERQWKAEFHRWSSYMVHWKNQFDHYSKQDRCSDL
# UniProt P06276: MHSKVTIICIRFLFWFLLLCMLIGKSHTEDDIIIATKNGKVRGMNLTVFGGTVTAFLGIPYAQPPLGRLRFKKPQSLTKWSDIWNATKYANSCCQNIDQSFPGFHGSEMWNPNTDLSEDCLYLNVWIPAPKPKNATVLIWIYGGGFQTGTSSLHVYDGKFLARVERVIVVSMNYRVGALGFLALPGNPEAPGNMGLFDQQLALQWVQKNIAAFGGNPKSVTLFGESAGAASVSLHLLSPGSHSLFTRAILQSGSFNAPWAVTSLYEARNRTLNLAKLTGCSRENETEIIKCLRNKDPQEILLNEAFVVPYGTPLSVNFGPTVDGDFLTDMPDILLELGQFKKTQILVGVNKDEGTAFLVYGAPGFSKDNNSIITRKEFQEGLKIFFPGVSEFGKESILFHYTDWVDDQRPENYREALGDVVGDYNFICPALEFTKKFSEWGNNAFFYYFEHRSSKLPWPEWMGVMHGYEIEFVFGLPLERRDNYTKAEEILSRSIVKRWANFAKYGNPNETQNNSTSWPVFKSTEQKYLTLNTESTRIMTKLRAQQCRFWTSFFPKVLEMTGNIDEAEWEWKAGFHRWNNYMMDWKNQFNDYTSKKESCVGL
# Key:
# COX II (sheep placenta) = COX II (sheep placenta) (Ovis aries, UniProt P79208); assay: Inhibition of COX II in vitro (PGE2 immunoassay); conditions: 10^−6 M
# [1] = biological target: COX I (bovine seminal vesicles) (Bos taurus, UniProt O62664); assay: Inhibition of COX I in vitro (PGE2 immunoassay); conditions: 10^−6 M
# [2] = biological target: fetal bovine serum-AChE (FBS-AChE) (Bos taurus, UniProt P23795); assay: Inhibition kinetics of fetal bovine serum AChE in vitro (Ellman)
# mice [3] = assay: In vivo toxicity (LD50) and Therapeutic Index in mice; conditions: intraperitoneal, 24 hours
# closed head injury = assay: Protection against closed head injury in mice; format: in vivo
# [4] = biological target: recombinant human acetylcholineesterase (rHuAChE) (Homo sapiens, UniProt P22303); assay: Inhibition of recombinant human AChE in vitro (Ellman); conditions: Hu-AChE
# [5] = Lipophilicity: n-octanol/phosphate buffer partition; conditions: 50 mM phosphate buffer pH 7.4, 25° C
# [6] = biological target: human plasma butyrylcholinesterase (HuBChE) (Homo sapiens, UniProt P06276); assay: Inhibition kinetics of human plasma BChE in vitro (Ellman); conditions: Hu-BuChE
# [7] = system: carrageenan-induced rat paw edema; assay: Carrageenan-induced rat paw edema; format: in vivo; conditions: 5 mg/kg i.p. 30 minutes before CAR, 2 hours after CAR; vehicle only 73%
# mice [8] = assay: Hypothermic effect in mice (rectal temperature); format: in vivo; conditions: intraperitoneal 2.5 mg/kg
# hypobaric hypoxia = assay: Protection against hypobaric hypoxia in mice; format: in vivo
# [9] = Stability in human plasma in vitro; conditions: ESMS analysis
# NMDA receptors = assay: Displacement of [^3H]MK-801 from rat brain; conditions: [^3H]MK-801, L = 4.8 nM, KD = 33 nM
# CAR-induced brain edema [10] = assay: Carrageenan-induced brain edema in rats; format: in vivo; conditions: pretreatment 10 minutes prior to icv CAR (1%)
# CAR-induced brain edema [11] = assay: Carrageenan-induced brain edema in mice; conditions: intraperitoneal 10 mg/kg
# [12] = system: rat stomach mucosal tissue; assay: Rat stomach mucosal tissue after intraperitoneal administration; conditions: intraperitoneal 10 mg/kg
# [13] = 5 mg/kg i.p. 15 minutes after head injury, vehicle 83.64, sham 78.65
# [14] = 7.5 mg/kg i.p. 15 minutes after head injury
# [15] = 10 mg/kg i.p. 15 minutes after head injury
molecule,measurement,setting,value
"N-(Naproxen octanoate)-3-(N,N-dimethylcarbamoyl) pyridinium bromide",% Inhibition COX II,COX II (sheep placenta),62%
same,% Inhibition COX I,[1],55%
same,K′,[2],0.9 min⁻¹
same,ki (bimolecular rate constant),[2],3.5 × 10^5 M^−1m^−1
same,ks × 10^3,[2],95 minutes^−1
same,Ki,"[2]; 25° C, dissociation constant",2500 nM
same,LD50 (mice i.p.),mice [3],37.2 mg/kg
same,Water content (%),closed head injury; [13],81.38% and 81.38 ± 0.59%
same,"DNSS (difference in neurological severity score, 1 h − 24 h)","closed head injury; 5 mg/kg i.p., vehicle 1.0",2.0 and 2.00 ± 1.0
same,"DNSS (difference in neurological severity score, 1 h − 24 h)",closed head injury; 7.5 mg/kg i.p.,1.52 and 1.50 ± 0.62
same,Water content (%),closed head injury; [14],82.09% and 82.09 ± 0.19%
same,Water content (%),closed head injury; [15],81.38% and 81.38 ± 0.55%
same,K′,[4],0.4 min⁻¹
same,ki (bimolecular rate constant),[4],1.7 × 10^6 M^−1m^−1
same,ks × 10^3,[4],40 minutes^−1
same,Ki,"[4]; 25° C, dissociation constant",240 nM
same,Kp (partition coefficient n-octanol / phosphate buffer),[5],6.5
same,K′,[6],0.07 min⁻¹
same,ki (bimolecular rate constant),[6],3.3 × 10^5 M^−1m^−1
same,ks × 10^3,[6],1.1 minutes^−1
same,Ki,"[6]; 25° C, dissociation constant",210 nM
COc1ccc2c(c1)c(CC(=O)OCCCCCCCC[n+]1cccc(OC(=O)N(C)C)c1)c(C)n2C(=O)c1ccc(Cl)cc1,% Inhibition COX II,COX II (sheep placenta),75%
same,% Inhibition COX I,[1],41%
same,edema level (% EDEMA) after treatment,[7],about 30%
same,Kp (partition coefficient n-octanol / phosphate buffer),[5],>99
CC(C)Cc1ccc(C(C)C(=O)OCCCCCCCC[n+]2cccc(OC(=O)N(C)C)c2)cc1 (centres unmarked),persistence of hypothermic effect,mice [8],at least 6 hours
same,time of maximal hypothermic effect,mice [8],30 min
same,% Inhibition COX II,COX II (sheep placenta),62%
same,% Inhibition COX I,[1],41%
same,survival of hypobaric hypoxia,hypobaric hypoxia; maximal hypoxia period 15 minutes,survived even the maximal hypoxia period of 15 minutes
same,protection against hypoxia relative to vehicle control,"hypobaric hypoxia; various doses i.p. 30 minutes before 200 mm Hg, vehicle control 100 seconds",7.5-9 fold
same,edema level (% EDEMA) after treatment,[7],about 30%
same,degradation products of the hydrolysis in plasma,[9],PO-OH and ibuprofen
same,IC50,NMDA receptors,49000 nM
same,Ki,NMDA receptors,43000 nM
same,brain % water content,CAR-induced brain edema [10],82%
same,effect on brain water content,CAR-induced brain edema [11],significantly reduces the brain water content
same,Water content (%),closed head injury; [13],80.94% and 80.94 ± 0.84 %
same,"DNSS (difference in neurological severity score, 1 h − 24 h)","closed head injury; 5 mg/kg i.p., vehicle 1.0",1.25 and 1.25 ± 0.63
same,Water content (%),closed head injury; [14],81.45% and 81.45 ± 0.35%
same,Water content (%),closed head injury; [15],80.91% and 80.91 ± 0.47 %
same,effect on mucosal tissue of rat stomach,[12],did not cause any detrimental effect on the mucosal tissue of rat stomach
same,Kp (partition coefficient n-octanol / phosphate buffer),[5],6.14
CC(=O)Oc1ccccc1C(=O)OCCCCCCCC[n+]1cccc(OC(=O)N(C)C)c1,Kp (partition coefficient n-octanol / phosphate buffer),[5],0.47

# Source: patent US20020160988A1 (priority 2001, published 2002)
